Experimental findings from patent US20150374749A1 are described below.

pIC50: −log10 of the molar value. Some compounds may have been tested in ways that are not shown here.

Broadly, the pIC50 is −log10 of the IC50, conventionally taken in molar units.

A short description of series [1]: Amperometric detection of NO release with NO-sensitive electrode. As to the method: FIG. 1: SNP efficiently removes H2S from the solution without any NO release. (A) The NO electrode trace of the reaction between H2S and SNP. The upper panel represents the response of the NO electrode (in the dark) to the addition of 100 μM SNP in a buffered solution (straight line), and the response upon the addition of 100 μM of both Na2S and CuCl2 (dashed line). […] . The electrode response to SNP in the absence of light is shown for comparison (straight line). […] . The straight lines represent the corresponding responses upon the addition of only SNP. The points in time at which H2S or CuCl2 were added are marked with arrows. The small arrow at the bottom of each panel denotes the point in time at which SNP was added. (B) H2S electrode traces for the reaction of H2S with SNP. A 50 μM Na2S solution was injected into a 300 mM phosphate buffer at a pH 7.4 under aerobic conditions followed by the injection of an equimolar amount of SNP.
To both test the hypothesis of stable S-nitrosothiol formation and determine the actual source of the NO release, the reaction between SNP and H2S was followed using an NO-sensitive electrode both in the total absence of light and under ambient light. The fate of NO was monitored throughout the course of the reaction using ISO-NO probes connected to a Free Radical Analyzer (World Precision Instruments) (Filipovic, M. R. et al., 2012, b).

For the next series, the system named is HUVEC. The series is described as follows: Intracellular HNO detection with fluorescent sensor CuBOT1. The following applies: 100 μM, 15 min. As to the method: FIG. 11: Intracellular fluorescence in HUVECs, caused by HNO formation. After loading with the HNO sensor, CuBOT1, the cells were treated with either 100 μM Na2S, 100 μM SNP, or a combination of both. The photomicrographs were taken at a ×40 magnification. […] .
It was further sought to confirm the formation of HNO from the SNP and H2S mixture in a biological milieu. To accomplish this goal, a recently developed Cu^2+-based fluorescent sensor, CuBOT1, was used for the intracellular HNO detection (Rosenthal, J. et al., 2009).
Human umbilical vein endothelial cells (HUVEC, passage 2-3) were obtained from PromoCell GmbH (Heidelberg, Germany) and cultured in 35 mm μ-dishes (ibidi, Martinsried, Germany) using a commercially available cell growth medium (PromoCell GmbH) at 37° C. and 5% CO2. For NO detection, the cells were preloaded for 10 min with 10 μM 4-amino-5-methylamino-2′,7′-difluorofluorescein diacetate (DAF-FM-DA). For HNO detection, the HUVECs were incubated for 20 min with 10 μM CuBOT1 (Rosenthal, J. et al., 2009; Filipovic, M. R. et al., 2012, b). For both NO detection and HNO detection, the HUVECs were then washed three times and treated with 100 μM SNP, 100 μM H2S or the mixture of both for 15 min. Fluorescence microscopy was performed using an inverted microscope (Axiovert 40 CLF, Carl Zeiss) equipped with green fluorescent filters and an AxioCam. […]

For series [2], the system named is CGRP release from isolated mouse heart. The experiment in a line: Ex-vivo release of CGRP from isolated heart (enzyme immunoassay). The following applies: 1 mM H2S, 500 μM SNP or both; 5 min at 37° C. As to the method:
FIG. 13: HNO-induced release of CGRP from an isolated mouse heart upon stimulation with a reaction mixture containing 500 μM SNP and 1 mM Na2S.
The primary proposed biological marker for HNO formation is the increased release of calcitonin gene-related peptide (CGRP), a potent vasodilator (Paolocci, N. et al., 2001). CGRP is a neuropeptide for chemosensory primary afferent nerve fibers located in the epicardial surface of the heart.
The release of CGRP from the isolated heart of C57BL/6 mice was measured as reported in Strecker, T. et al., 2006. Briefly, the mice were suffocated in a pure CO2 atmosphere and the complete heart was excised by cutting the central blood vessels. The procedures were approved by the animal protection authorities (of the “Regierung von Mittelfranken”, Ansbach, Germany). The hearts were passed through a series of synthetic interstitial fluid incubations both with and without the addition of the test compounds (H2S alone, SNP alone, or the combination of H2S and SNP) and spent 5 min in each test tube at 37° C. The CGRP concentration was measured via enzyme immunoassay (Bertin Pharma, Montigny, France).

For series [3], the system named is isolated rat uterus preparations. The series is described as follows: Organ bath study of spontaneous and Ca2+-induced contraction of isolated rat uterus. How it is done: FIG. 2: Spontaneous and Ca^2+ induced contractile activity of rat uteri treated with H2S (A) or SNP (B). The contractile activity was expressed as the relative ratio between the mean height peak of the untreated control and the treated uteri. The data are expressed as the mean±SEM (n=8). (C) The effects of 1 mM H2S, 1 mM SNP and the combination of both on the spontaneous and Ca^2+ induced uterus contractions.
The effects of H2S, SNP and their combination on the spontaneous and Ca^2+-induced contraction of isolated rat uterus preparations were tested. This particular pharmacological model was chosen because, unlike other models, it is relatively resistant (at high millimolar concentration) to SNP-induced dilatation (Hennan, J. K. et al., 1998) but still sensitive to other, real NO donors (Demirkoprulu, N. et al., 2005), which makes it suitable for testing the potential NO release from the SNP and H2S reaction mixture.
Isolated uteri from virgin Wistar rats (200-250 g) in the oestrus phase of the estrous cycle, as determined by examining a daily vaginal lavage, were used (Appiah, I. et al., 2010). All of the rats were sacrificed by cervical dislocation following a procedure approved by the animal protection authorities (University of Belgrade, Serbia). […] The myometrial tension was recorded isometrically using a TSZ-04-E isolated organ bath and transducer (Experimetria, Budapest, Hungary). […]

Regarding Sodium nitroprusside, the “NO release under visible light source (500-550 nm)” value in series [1] (1 mM SNP, with or without 1 mM H2S, irradiated) is “released substantial amounts of NO”. Besides, the “NO release under ambient light” value in series [1] (ambient light) is reported as “Minor amounts of NO were released”. The “NO release in the dark” value in series [1] (total absence of light, buffered solution) is given as “no release of NO”. The “change in fluorescent intensity of HNO sensor CuBOT1” value in the series with HUVEC was “Neither H2S alone nor SNP alone caused any detectable change”. Moreover, in series [2], the “CGRP release from isolated mouse heart” value is listed as “small increase”. In series [3] (SNP alone, 1-20 mM), the “effect on spontaneous muscle contraction” value is reported as “little effect”. Also, the pIC50 in series [3] (read-out: IC50 for the Ca2+-induced contractions, Ca2+ (6 mM) contracted rat uterus) was 2.00.
